Laboratory results: ChEMBL document CHEMBL1130156, “Evolution of the Dmt-Tic pharmacophore: N-terminal methylated derivatives with extraordinary delta opioid antagonist activity” (J Med Chem, 1997)

Chains of the proteins cited; added tags and fusions are not shown.
UniProt P33533, whole entry: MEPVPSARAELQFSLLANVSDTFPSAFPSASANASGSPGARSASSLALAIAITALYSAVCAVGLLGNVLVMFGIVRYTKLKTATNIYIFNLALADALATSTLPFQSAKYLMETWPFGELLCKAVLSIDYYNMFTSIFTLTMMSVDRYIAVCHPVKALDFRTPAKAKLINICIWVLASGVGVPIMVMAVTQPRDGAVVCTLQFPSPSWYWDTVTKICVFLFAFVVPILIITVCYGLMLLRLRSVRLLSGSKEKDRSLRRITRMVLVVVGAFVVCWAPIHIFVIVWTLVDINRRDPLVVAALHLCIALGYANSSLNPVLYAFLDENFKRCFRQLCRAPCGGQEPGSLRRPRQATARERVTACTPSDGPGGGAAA
UniProt P35372, whole entry: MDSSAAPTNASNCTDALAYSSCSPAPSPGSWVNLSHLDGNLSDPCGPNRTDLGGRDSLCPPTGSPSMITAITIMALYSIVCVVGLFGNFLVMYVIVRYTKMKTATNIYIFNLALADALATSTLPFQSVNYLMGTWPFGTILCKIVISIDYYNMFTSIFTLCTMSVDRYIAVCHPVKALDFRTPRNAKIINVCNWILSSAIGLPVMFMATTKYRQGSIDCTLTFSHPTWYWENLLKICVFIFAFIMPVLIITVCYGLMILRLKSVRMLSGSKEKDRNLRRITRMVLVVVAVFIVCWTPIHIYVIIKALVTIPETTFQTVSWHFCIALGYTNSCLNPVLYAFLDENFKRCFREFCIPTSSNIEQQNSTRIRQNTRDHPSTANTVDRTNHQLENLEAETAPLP

Key:
[1] = biological target: Delta-type opioid receptor (Rattus norvegicus, UniProt P33533); assay: Binding affinity for Opioid receptor delta 1 by displacement of [3H]- DPDPE
Method in brief: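 Rat brain (Sprague–Dawley, minus cerebellum) synaptosomal membranes, preincubated to strip endogenous opioids. Equilibrium displacement of [3H]DPDPE (δ) or [3H]DAGO (μ); nonspecific binding defined with 2 μM unlabeled ligand. Peptides spanned 3–4 log units. Duplicates, ≥3 membrane preparations; Ki by Cheng–Prusoff; mean ± SEM, n = independent preparations.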

Mu-type opioid receptor = Mu-type opioid receptor (Homo sapiens, UniProt P35372); assay: Agonist activity for Opioid receptor mu 1; type: functional

Compound	Ki [1] [nM]	IC50 (Mu-type opioid receptor) [nM]
Cc1cc(O)cc(C)c1CC(N)C(=O)N1Cc2ccccc2C[C@H]1C(=O)O (single isomer, unassigned)	124	–
C[C@@H](NC(=O)[C@@H](N)Cc1ccc(O)cc1)C(=O)N[C@@H](Cc1ccccc1)C(=O)NCC(=O)N[C@@H](Cc1ccc(O)cc1)C(=O)N1CCC[C@H]1C(=O)N[C@@H](CO)C(N)=O [DERMORPHIN]	–	1.82
